system: OCI-LY10 cells; assay: Inhibitory activity against OCI-LY10 cell proliferation (CCK-8); settings: 72 h incubation
Method: OCI-LY10 cells in a good growth state were collected into a centrifuge tube, adjusted to a cell density of 9 × 10^4 cells/mL using an assay medium (1640 + 10% FBS), and seeded onto a 96-well plate (100 µL/well). The cells were incubated overnight in a cell incubator. Compounds were added using a nanoliter pipettor such that the final concentrations of the compounds were 1000 nM to 1.64 nM (the addition was performed in duplicate). Meanwhile, a control was set. After 72 h of incubation in the cell incubator, the assay reagent CCK-8 (manufacturer: Dojindo Laboratories; 10 µL/well) was added. After 4 h of incubation in the cell incubator, the absorbance values were measured at 450 nm on a PerkinElmer Envision microplate reader. A four-parameter analysis was performed, a dose-response curve was fitted, and IC50 was calculated. Table 1. Inhibitory activity against OCI-LY10 cell proliferation

| IC50 [nM] | Structure (SMILES) |
| --- | --- |
| < 10 | NC(=O)c1c(Nc2ccc(C3CCN(C4COC4)CC3)c(C(O)C3CC3)n2)cnn1-c1ccc(CNC(=O)c2cc(F)cc3cccnc23)cc1 (stereo not drawn) |
| < 10 | CCC(OC1CC1)c1nc(Nc2cnn(-c3ccc(CNc4nc(C)cc5c(F)ccc(OC)c45)cc3)c2C(N)=O)ccc1N1CCN(C2COC2)CC1 (racemic) |
| < 10 | COCCN1CCN(c2ccc(Nc3cnn(-c4ccc(CNc5nccc6c(F)ccc(OC)c56)cc4)c3C(N)=O)nc2C(O)C(F)(F)F)CC1 (single isomer, unassigned) |
| < 10 | COCCN1CCN(c2ccc(Nc3cnn(-c4ccc(CNC(=O)c5cc(F)cc6cccnc56)cc4)c3C(N)=O)nc2C(C)O)CC1 (single isomer, unassigned) |
| < 10 | CCC(OC)c1nc(Nc2cnn(-c3ccc(CNC(=O)c4cc(F)cc5cccnc45)cc3)c2C(N)=O)ccc1N1CCN(C2COC2)CC1 (stereo not drawn) |
| < 10 | COCCN1CCN(c2ccc(Nc3cnn(-c4ccc(CNc5nccc6c(F)ccc(OC)c56)cc4)c3C(N)=O)nc2C(OC)C2CC2)CC1 (racemic) |
| < 10 | COCCN1CCN(c2ccc(Nc3cnn(-c4ccc(CNC(=O)c5cc(F)cc6cccnc56)cc4)c3C(N)=O)nc2C(OC)C2CC2)CC1 (stereo not drawn) |

More lines, now with the values behind:

| Structure (SMILES) | IC50 [nM] |
| --- | --- |
| COc1ccc(F)c2cc(C)nc(NCc3ccc(-n4ncc(Nc5ccc(N6CCN(C7COC7)CC6)c(C(O)C(F)(F)F)n5)c4C(N)=O)cc3)c12 (single isomer, unassigned) | < 10 |
| COC(c1nc(Nc2cnn(-c3ccc(CNC(=O)c4cc(F)cc5cccnc45)cc3)c2C(N)=O)ccc1N1CCN(C)CC1)C1CC1 (stereo not drawn) | < 10 |
| COc1ccc(F)c2ccnc(NCc3ccc(-n4ncc(Nc5ccc(C6CCN(C7COC7)CC6)c(C(O)C6CC6)n5)c4C(N)=O)cc3)c12 (stereo not drawn) | < 10 |
| COCCN1CCN(c2ccc(Nc3cnn(-c4ccc(CNc5nccc6c(F)ccc(OC)c56)cc4)c3C(N)=O)nc2C(OC)C2CC2)CC1 (single isomer, unassigned) | < 10 |
| COc1ccc(F)c2ccnc(NCc3ccc(-n4ncc(Nc5ccc(N6CCN(C)CC6)c(C(OC)C6CC6)n5)c4C(N)=O)cc3)c12 (stereo not drawn) | < 10 |
| COCCN1CCN(c2ccc(Nc3cnn(-c4ccc(CNC(=O)c5cc(F)cc6cccnc56)cc4)c3C(N)=O)nc2C(C)O)[C@@H](C)C1 (stereo partly drawn) | < 10 |
| COC(c1nc(Nc2cnn(-c3ccc(CNC(=O)c4cc(F)cc5cccnc45)cc3)c2C(N)=O)ccc1N1CCN(C2COC2)CC1)C1CC1 (stereo not drawn) | < 10 |
| COc1ccc(F)c2ccnc(NCc3ccc(-n4ncc(Nc5ccc(N6CCC(N(C)C)CC6)c(C(OC)C6CC6)n5)c4C(N)=O)cc3)c12 (single isomer, unassigned) | < 10 |
| COc1ccc(F)c2ccnc(NCc3ccc(-n4ncc(Nc5ccc(N6CCN(C)CC6)c(C(O)C(F)(F)F)n5)c4C(N)=O)cc3)c12 (single isomer, unassigned) | < 10 |
| COc1ccc(F)c2cc(C)nc(NCc3ccc(-n4ncc(Nc5ccc(N6CCN(C7COC7)CC6)c(C(O)C6CC6)n5)c4C(N)=O)cc3)c12 (stereo not drawn) | < 10 |
| CN1CCN(c2ccc(Nc3cnn(-c4ccc(CNC(=O)c5cc(F)cc6cccnc56)cc4)c3C(N)=O)nc2C(O)C2CC2)CC1 (single isomer, unassigned) | < 10 |
| CCC(O)c1nc(Nc2cnn(-c3ccc(CNC(=O)c4cc(F)cc5cccnc45)cc3)c2C(N)=O)ccc1N1CCN(C2COC2)CC1 (single isomer, unassigned) | < 10 |
| C=CCCC(O)c1nc(Nc2cnn(-c3ccc(CNc4nccc5c(F)ccc(OC)c45)cc3)c2C(N)=O)ccc1N1CCN(C)CC1 (stereo not drawn) | < 10 |
| COCCN1CCC(c2ccc(Nc3cnn(-c4ccc(CNc5nccc6c(F)ccc(OC)c56)cc4)c3C(N)=O)nc2C(C)O)CC1 (single isomer, unassigned) | < 10 |
| [2H]C([2H])([2H])OC(c1nc(Nc2cnn(-c3ccc(CNC(=O)c4cc(F)cc5cccnc45)cc3)c2C(N)=O)ccc1N1CCN(C2CC2)CC1)C1CC1 (stereo not drawn) | < 10 |
| COCCN1CCN(c2ccc(Nc3cnn(-c4ccc(CNC(=O)c5cc(F)cc6cccnc56)cc4)c3C(N)=O)nc2C(O)C(F)F)CC1 (racemic) | < 10 |
| CCC(OC)c1nc(Nc2cnn(-c3ccc(CNc4nccc5c(F)ccc(OC)c45)cc3)c2C(N)=O)ccc1N1CCN(C2COC2)CC1 (stereo not drawn) | < 10 |

— patent EP4825855A1, “COMPOUND CONTAINING PYRAZOLE RING AND BICYCLIC HETEROARYL GROUP, PHARMACEUTICAL COMPOSITION THEREOF AND USE THEREOF” (dated 2026)
